Assay results published in patent US20180000942A1, “COMPOSITIONS FOR DRUG ADMINISTRATION” (priority 2013, published 2018).

Columns and labels:
[1] = type: in vivo, human; conditions: nasal hydromorphone of the invention
breakthrough pain = conditions: in vivo; cited from earlier work

In the case of `CN1CC[C@]23c4c5ccc(O)c4O[C@H]2C(=O)CC[C@H]3[C@H]1C5` [hydromorphone], the “extended pain relief effects lasting” value [1] is given as at least 2 h and the “patient scores of pain relief” value (breakthrough pain) is given as 3.4 /4.
